The assay addresses Homeodomain-interacting protein kinase 3 (Homo sapiens) (UniProt Q9H422). Description: Inhibition of HIPK3 assessed as residual activity at 1 uM relative to control.

Sequences of proteins named here, by UniProt entry; tags and fusion partners are left off. A change or cut given only in a name is not applied to a line headed by its entry.
UniProt Q9H422: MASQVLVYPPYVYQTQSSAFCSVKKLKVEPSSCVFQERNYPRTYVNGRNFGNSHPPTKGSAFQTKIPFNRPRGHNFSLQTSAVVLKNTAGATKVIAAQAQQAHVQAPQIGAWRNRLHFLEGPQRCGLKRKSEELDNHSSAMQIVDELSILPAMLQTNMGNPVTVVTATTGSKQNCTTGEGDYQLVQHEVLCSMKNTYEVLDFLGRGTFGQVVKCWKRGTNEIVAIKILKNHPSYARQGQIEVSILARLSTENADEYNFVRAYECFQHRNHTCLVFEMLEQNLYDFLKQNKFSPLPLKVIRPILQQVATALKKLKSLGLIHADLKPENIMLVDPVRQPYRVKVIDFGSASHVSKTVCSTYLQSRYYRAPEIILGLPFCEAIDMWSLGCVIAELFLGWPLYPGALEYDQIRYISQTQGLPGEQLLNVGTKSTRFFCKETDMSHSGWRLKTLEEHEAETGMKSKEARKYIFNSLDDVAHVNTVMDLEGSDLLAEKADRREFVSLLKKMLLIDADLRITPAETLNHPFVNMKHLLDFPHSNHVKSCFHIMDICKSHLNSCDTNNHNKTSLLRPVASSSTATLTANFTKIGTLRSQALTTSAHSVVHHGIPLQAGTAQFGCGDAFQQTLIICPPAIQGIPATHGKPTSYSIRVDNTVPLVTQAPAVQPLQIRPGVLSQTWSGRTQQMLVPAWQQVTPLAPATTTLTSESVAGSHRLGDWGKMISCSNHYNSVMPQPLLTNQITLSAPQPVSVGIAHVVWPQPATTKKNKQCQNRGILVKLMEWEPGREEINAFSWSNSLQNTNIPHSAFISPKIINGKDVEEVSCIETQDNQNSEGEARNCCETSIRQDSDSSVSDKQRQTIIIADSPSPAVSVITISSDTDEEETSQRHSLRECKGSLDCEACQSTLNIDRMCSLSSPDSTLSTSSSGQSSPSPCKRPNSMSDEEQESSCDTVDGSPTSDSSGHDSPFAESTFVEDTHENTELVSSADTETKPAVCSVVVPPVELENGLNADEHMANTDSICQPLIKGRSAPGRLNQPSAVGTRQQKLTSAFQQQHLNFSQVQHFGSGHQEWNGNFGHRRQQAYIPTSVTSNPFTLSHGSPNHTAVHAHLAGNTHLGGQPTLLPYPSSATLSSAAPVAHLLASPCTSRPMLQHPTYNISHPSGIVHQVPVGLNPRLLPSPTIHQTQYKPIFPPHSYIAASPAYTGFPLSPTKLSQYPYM

For `COc1cc(N2CCC(N3CCN(C)CC3)CC2)ccc1Nc1ncc(Cl)c(Nc2ccccc2S(=O)(=O)C(C)C)n1` [TAE-684], the Activity came out at 81%.
